Measurements from ChEMBL document CHEMBL1151531, “Taxol structure-activity relationships: synthesis and biological evaluation of taxol analogs modified at C-7” (Bioorg Med Chem Lett, 1994).

The chains behind the UniProt entries cited, without tags or fusion partners.
UniProt P02550, whole entry, looked up: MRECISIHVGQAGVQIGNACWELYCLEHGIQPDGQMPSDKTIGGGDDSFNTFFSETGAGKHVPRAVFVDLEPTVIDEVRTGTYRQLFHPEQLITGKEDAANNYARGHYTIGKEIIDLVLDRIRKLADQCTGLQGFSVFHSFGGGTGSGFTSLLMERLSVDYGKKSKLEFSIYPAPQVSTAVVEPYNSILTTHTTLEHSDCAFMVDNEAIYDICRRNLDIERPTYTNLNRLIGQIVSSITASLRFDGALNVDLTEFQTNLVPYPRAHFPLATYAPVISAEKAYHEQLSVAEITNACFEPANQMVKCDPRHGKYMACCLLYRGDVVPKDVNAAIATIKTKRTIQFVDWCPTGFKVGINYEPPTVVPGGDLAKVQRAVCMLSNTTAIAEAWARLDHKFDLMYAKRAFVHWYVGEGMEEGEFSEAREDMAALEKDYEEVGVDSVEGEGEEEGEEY

Biological target: Tubulin alpha chain (Sus scrofa) (UniProt P02550)
Experiment: Initial tubulin polymerization rate relative to taxol.
Type: functional

Compound | Initial rate ratio
CC(=O)O[C@H]1C(=O)[C@@]2(C)C([C@H](OC(=O)c3ccccc3)[C@]3(O)C[C@H](OC(=O)[C@H](O)[C@@H](NC(=O)c4ccccc4)c4ccccc4)C(C)=C1C3(C)C)[C@]1(OC(C)=O)CO[C@@H]1C[C@H]2O (some centres not stated) | 0.45
CC(=O)O[C@H]1C(=O)[C@@]2(C)[C@H]([C@H](OC(=O)c3ccccc3)[C@]3(O)C[C@H](OC(=O)[C@H](O)[C@@H](NC(=O)c4ccccc4)c4ccccc4)C(C)=C1C3(C)C)[C@]1(OC(C)=O)CO[C@@H]1C[C@@H]2O [PACLITAXEL] | 1
